From patent US20190038613A1, “COMBINATION THERAPY” (Eli Lilly and Company, priority 2016, published 2019)

System: deposited Aβ
Assay: Ex vivo target engagement, immunohistochemistry on brain sections from fixed PDAPP brain
Assay type: binding
Details: cryostat coronal sections from aged PDAPP mice (25-month old), test antibody 20 μg/mL
Text: Secondary HRP reagents specific for human IgG are employed and the deposited plaques are visualized with DAB-Plus (DAKO). Biotinylated murine 3D6 antibody followed by Step-HRP secondary is used as a positive control. […] Aβ antibodies (Antibody I and Antibody II) engaged deposited Aβ target ex vivo.

| Molecule | labeling of deposited Aβ in PDAPP hippocampus |
| --- | --- |
| Antibody I: anti-N3pGlu Abeta antibody with LC of SEQ ID NO: 12 and HC of SEQ ID NO: 11 (antibody) heavy: QVQLVQSGAEVKKPGSSVKVSCKASGYTFTDYYINWVRQAPGQGLEWMGWINPGSGNTKYNEKFKGRVTITADESTSTAYMELSSLRSEDTAVYYCTREGETVYWGQGTLVTVSSASTKGPSVFPLAPSSKSTSGGTAALGCLVKDYFPEPVTVSWNSGALTSGVHTFPAVLQSSGLYSLSSVVTVPSSSLGTQTYICNVNHKPSNTKVDKKV[human IgG1 Fc not listed] light: DVVMTQSPLSLPVTLGQPASISCKSSQSLLYSRGKTYLNWFQQRPGQSPRRLIYDVSKLDSGVPDRFSGSGSGTDFTLKISRVEAEDVGVYYCVQGTHYPFTFGQGTKLEIKRTVAAPSVFIFPPSDEQLKSGTASVVCLLNNFYPREAKVQWKVDNALQSGNSQESVTEQDSKDSTYSLSSTLTLSKADYEKHKVYACEVTHQGLSSPVTKSFNRGEC | labeled a subset of deposits |
| Antibody II: anti-N3pGlu Abeta antibody with LC of SEQ ID NO: 13 and HC of SEQ ID NO: 11 (antibody) heavy: QVQLVQSGAEVKKPGSSVKVSCKASGYTFTDYYINWVRQAPGQGLEWMGWINPGSGNTKYNEKFKGRVTITADESTSTAYMELSSLRSEDTAVYYCTREGETVYWGQGTLVTVSSASTKGPSVFPLAPSSKSTSGGTAALGCLVKDYFPEPVTVSWNSGALTSGVHTFPAVLQSSGLYSLSSVVTVPSSSLGTQTYICNVNHKPSNTKVDKKV[human IgG1 Fc not listed] light: DIQMTQSPSTLSASVGDRVTITCKSSQSLLYSRGKTYLNWLQQKPGKAPKLLIYAVSKLDSGVPSRFSGSGSGTEFTLTISSLQPDDFATYYCVQGTHYPFTFGQGTKLEIKRTVAAPSVFIFPPSDEQLKSGTASVVCLLNNFYPREAKVQWKVDNALQSGNSQESVTEQDSKDSTYSLSSTLTLSKADYEKHKVYACEVTHQGLSSPVTKSFNRGEC | labeled a subset of deposits |
